This assay has as its target T1, Nicotinamide N-methyltransferase (Homo sapiens) (UniProt P40261).
T1 sequence (whole entry): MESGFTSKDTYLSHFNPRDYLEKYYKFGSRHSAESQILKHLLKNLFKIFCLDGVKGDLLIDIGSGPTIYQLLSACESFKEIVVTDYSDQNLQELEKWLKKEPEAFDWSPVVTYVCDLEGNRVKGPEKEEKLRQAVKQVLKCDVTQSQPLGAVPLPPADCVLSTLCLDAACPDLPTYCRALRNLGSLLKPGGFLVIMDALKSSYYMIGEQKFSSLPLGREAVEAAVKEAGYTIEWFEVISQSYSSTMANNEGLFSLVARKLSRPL
Put plainly: Inhibition of recombinant human NNMT expressed in Escherichia coli BL21(DE3) cells assessed as inactivation first order rate constant after 30 mins in presence of SAM by LC/MS analysis.

The source of these data is ChEMBL document CHEMBL4321848 (J Med Chem, 2019).

Turning to `NC(=O)c1cnccc1Cl`, the K was found to be 80 M⁻¹ min⁻¹.
